The values that follow are results of earlier work, collected in patent publication US10889565B2, “4-hydroxy-3-sulfonylpyridin-2(1H)-ones as APJ receptor agonists” (BRISTOL-MYERS SQUIBB COMPANY, priority 2016, dated 2021).

The conditions of the series: Japp et al. 2010; cited from earlier work.

As for Apelin, the “half life in circulation” value was “less than 5 minutes”.
